From patent US9011988B2, “Liquid-crystal compound, liquid-crystal composition, light absorption anisotropic film, and liquid-crystal display device” (Fujifilm Corporation, priority 2010, dated 2015)

Assay: Solubility in chloroform / preparation of chloroform coating liquid
Format: physicochemical
Details: 1 weight part compound in 99 weight parts of chloroform
Experimental: The solubility of these compounds in chloroform was measured.
Following stirring and dissolution, a liquid-crystal composition coating liquid was obtained. Each of the coating liquids was then coated on an alignment film that had been formed on a glass substrate and had been rubbed. Subsequently, the chloroform was allowed to dry naturally at room temperature, yielding individual light absorption anisotropic films. The polyvinylalcohol indicated below was employed as the alignment film.

Compound: CCCCCCOc1ccc(N=Nc2ccc(C=Cc3cc(OC)c(C=Cc4ccc(N=Nc5ccc(OCCCCCC)cc5)cc4)cc3OC)cc2)cc1 [A-34]
- preparation of coating liquid: impossible to prepare a coating liquid
